Our source for the inhibition values is ChEMBL document CHEMBL1124528, “Tetrahydrothiadiazoloisoquinolines: synthesis and inhibition of phenylethanolamine-N-methyltransferase” (J Med Chem, 1989).

What is called inhibition is the percentage by which the read-out fell short of the control. High values mean a strong effect, low ones a weak effect.

This experiment has as its system Phenylethanolamine N-methyltransferase (rabbit). Briefly: Ability to inhibit rabbit adrenal phenylethanolamine N-methyl-transferase norepinephrine to epinephrine (E13), in vitro, at 10 e-6 M. Conditions: Oryctolagus cuniculus.

Molecules are shown by their SMILES.

Molecule `c1cc2nsnc2c2c1CCNC2` returned an inhibition of 79%.
